Laboratory results reported in patent US20090209525A1, “ENABLING METHODS TO IDENTIFY ALLOSTERIC MODULATORS OF RECEPTOR ACTIVITY” (priority 2006, published 2009).
Where “and” joins values, the source holds several entries; their conditions need not be identical. Equal values may be shown once.

Amino acid sequences for entries named in this document (tags omitted).
UniProt P08482, whole entry W101A: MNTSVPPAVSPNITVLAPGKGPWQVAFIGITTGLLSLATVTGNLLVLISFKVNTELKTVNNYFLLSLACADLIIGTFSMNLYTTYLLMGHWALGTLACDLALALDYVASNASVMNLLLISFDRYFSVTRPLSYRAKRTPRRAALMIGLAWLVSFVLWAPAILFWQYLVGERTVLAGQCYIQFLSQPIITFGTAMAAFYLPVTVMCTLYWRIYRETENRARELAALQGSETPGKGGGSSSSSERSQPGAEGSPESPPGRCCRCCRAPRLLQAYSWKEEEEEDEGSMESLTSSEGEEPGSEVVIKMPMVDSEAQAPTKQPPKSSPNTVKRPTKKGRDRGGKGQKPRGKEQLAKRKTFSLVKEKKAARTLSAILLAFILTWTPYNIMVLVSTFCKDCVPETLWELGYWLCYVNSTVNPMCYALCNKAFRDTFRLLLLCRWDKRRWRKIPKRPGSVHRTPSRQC
UniProt P08482, whole entry D105A: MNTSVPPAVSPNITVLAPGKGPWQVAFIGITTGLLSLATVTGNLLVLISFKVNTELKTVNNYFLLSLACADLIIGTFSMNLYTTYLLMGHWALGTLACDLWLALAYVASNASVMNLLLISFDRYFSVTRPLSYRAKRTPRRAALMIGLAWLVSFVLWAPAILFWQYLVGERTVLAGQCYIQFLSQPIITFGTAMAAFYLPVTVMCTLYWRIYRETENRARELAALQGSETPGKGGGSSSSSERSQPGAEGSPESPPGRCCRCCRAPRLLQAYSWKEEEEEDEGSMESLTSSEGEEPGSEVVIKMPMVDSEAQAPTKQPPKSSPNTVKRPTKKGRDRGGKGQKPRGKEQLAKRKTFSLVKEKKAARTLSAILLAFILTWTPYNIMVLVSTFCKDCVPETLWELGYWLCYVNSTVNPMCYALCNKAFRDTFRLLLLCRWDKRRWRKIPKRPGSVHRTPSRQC
UniProt P08482, whole entry Y106A: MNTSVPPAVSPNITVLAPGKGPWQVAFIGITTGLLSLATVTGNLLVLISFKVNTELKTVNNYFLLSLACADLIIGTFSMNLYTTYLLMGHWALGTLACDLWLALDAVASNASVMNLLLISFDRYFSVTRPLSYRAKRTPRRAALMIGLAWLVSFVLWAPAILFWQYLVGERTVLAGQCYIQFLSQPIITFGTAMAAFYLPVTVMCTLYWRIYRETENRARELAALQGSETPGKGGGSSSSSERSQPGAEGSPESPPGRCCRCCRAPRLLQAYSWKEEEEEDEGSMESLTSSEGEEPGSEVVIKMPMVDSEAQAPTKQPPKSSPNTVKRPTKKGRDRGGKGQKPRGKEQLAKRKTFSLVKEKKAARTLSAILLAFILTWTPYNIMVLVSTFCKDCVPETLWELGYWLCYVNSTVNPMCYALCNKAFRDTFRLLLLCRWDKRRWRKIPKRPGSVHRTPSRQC
UniProt P08482, whole entry L102A: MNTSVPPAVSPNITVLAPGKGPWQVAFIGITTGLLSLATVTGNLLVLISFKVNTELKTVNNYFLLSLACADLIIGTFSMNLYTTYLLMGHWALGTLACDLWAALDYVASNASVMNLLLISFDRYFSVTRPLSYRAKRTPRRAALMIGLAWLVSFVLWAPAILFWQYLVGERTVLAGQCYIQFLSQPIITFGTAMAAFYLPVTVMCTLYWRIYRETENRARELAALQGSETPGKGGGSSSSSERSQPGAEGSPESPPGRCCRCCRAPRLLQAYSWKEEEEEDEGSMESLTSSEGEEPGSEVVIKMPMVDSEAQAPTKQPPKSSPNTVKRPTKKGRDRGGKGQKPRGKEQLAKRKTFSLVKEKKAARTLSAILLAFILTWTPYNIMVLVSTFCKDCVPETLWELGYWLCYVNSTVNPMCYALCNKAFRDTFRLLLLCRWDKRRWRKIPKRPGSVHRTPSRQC
UniProt P08482, whole entry S109A: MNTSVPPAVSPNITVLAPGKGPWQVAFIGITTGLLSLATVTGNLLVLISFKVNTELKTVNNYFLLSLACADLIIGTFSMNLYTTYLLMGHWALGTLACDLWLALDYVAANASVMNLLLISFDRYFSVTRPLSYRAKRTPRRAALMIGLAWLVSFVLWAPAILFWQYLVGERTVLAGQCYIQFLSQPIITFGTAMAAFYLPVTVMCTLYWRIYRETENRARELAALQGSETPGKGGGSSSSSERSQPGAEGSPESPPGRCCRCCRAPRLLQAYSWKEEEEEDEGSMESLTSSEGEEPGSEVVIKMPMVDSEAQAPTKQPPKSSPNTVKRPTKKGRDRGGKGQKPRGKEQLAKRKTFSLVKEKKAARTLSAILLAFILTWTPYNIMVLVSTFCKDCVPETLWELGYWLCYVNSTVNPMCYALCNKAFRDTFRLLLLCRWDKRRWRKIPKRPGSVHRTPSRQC
UniProt P08482, whole entry Y381A: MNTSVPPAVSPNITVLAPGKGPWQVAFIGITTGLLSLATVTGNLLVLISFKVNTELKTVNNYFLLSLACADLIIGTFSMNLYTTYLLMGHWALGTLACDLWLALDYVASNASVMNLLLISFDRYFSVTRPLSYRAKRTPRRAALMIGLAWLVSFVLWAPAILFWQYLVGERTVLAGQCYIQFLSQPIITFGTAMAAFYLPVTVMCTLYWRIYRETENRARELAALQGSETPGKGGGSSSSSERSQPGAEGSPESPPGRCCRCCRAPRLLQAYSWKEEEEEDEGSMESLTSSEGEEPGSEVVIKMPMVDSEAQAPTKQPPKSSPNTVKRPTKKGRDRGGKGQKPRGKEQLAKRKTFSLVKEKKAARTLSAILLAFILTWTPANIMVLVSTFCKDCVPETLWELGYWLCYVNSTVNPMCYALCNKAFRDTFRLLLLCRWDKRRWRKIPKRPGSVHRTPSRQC

Legend:
[1] = biological target: T1, rat M1 wild-type receptors (Rattus norvegicus, UniProt P08482); assay: R-SAT functional assay, wild-type receptor
[2] = biological target: T2, rat M1 W101A receptor (Rattus norvegicus, UniProt P08482, W101A); assay: R-SAT functional assay, W101A mutant
[3] = biological target: T3, rat M1 D105A receptor (Rattus norvegicus, UniProt P08482, D105A); assay: R-SAT functional assay, D105A mutant; type: cell-based
T3 construct: expressed in transfected cells; host or cells: NIH-3T3

[4] = biological target: T1, rat M1 wild-type receptors; assay: Phosphatidyl inositol hydrolysis assay, wild-type; type: cell-based; design: expressed in transfected cells; details: PI hydrolysis
[5] = biological target: T2, rat M1 W101A receptor; assay: Phosphatidyl inositol hydrolysis assay, W101A; details: Table 6, PI hydrolysis, relative to wild-type response to that ligand (clozapine: title says fold-response)
[6] = biological target: T4, rat M1 Y106A receptor (Rattus norvegicus, UniProt P08482, Y106A); assay: R-SAT functional assay, Y106A mutant; type: cell-based; design: expressed in transfected cells
[7] = biological target: T5, rat M1 L102A receptor (Rattus norvegicus, UniProt P08482, L102A); assay: R-SAT functional assay, L102A mutant; type: cell-based
T5 construct: expressed in transfected cells; host or cells: NIH-3T3

[8] = biological target: T6, rat M1 S109A receptor (Rattus norvegicus, UniProt P08482, S109A); assay: Phosphatidyl inositol hydrolysis assay, S109A; type: cell-based; details: Table 6, PI hydrolysis, relative to wild-type response to that ligand
T6 construct: expressed in transfected cells

[9] = biological target: T4, rat M1 Y106A receptor; assay: Phosphatidyl inositol hydrolysis assay, Y106A; details: Table 6, PI hydrolysis, relative to wild-type response to that ligand (clozapine: title says fold-response)
[10] = biological target: T6, rat M1 S109A receptor; assay: R-SAT functional assay, S109A mutant; type: cell-based
[11] = biological target: rat M1 Y381A receptor (Rattus norvegicus, UniProt P08482, Y381A); assay: R-SAT functional assay, Y381A mutant; details: pEC50, Table 4
[12] = read-out: basal activity decreased by atropine, % of maximal response to carbachol

SMILES: CN1[C@@H]2CC[C@H]1C[C@@H](OC(=O)C(CO)c1ccccc1)C2 (stereo partly drawn) [Atropine]
- Emax at 0.5 µM [1, 12]: 7%
- Emax at 0.5 µM [2, 12]: 6%

SMILES: C[N+](C)(C)CCOC(N)=O.[Cl-] [Carbachol, carbamylcholine]
- Eff (%) [3]: no resp.
- maximum response over baseline ([4]; wild-type, typical value): carbachol, which was typically 3.3-fold over baseline.
- Eff (%) ([4]; Table 5, maximum response relative to carbachol): 100 ± 0%
- Eff (%) ([4]; Table 6, M1 WT, maximum response, normalized): 100 ± 4%
- Eff (%) [5]: >75 ± — %
- Eff (%) [6]: no resp.
- Eff (%) [7]: >30 ± — %
- Eff (%) [8]: >100 ± — %
- Eff (%) [9]: no resp.
- % Eff [1]: 84% and 97%
- Eff (%) [1]: 100 ± 0% and 100 ± 9%
- Eff (%) [10]: >65 ± — %
- Eff (%) [2]: >80 ± — %

SMILES: CCCCCCOc1nsnc1C1=CCCN(C)C1 [Xanomeline]
- EC50 [11]: 398 nM
- EC50 ([1]; pEC50, Table 4, M1 wild type): 50.1 nM
- EC50 ([2]; pEC50, Table 4, M1 W101A): 126 nM
